Results on 73 compounds are retold here after patent US10071095B2, “1,2,4-triazolo [4,3-A] pyridine derivatives and their use for the treatment of neurological and psychiatric disorders” (JANSSEN PHARMACEUTICALS, INC., priority 2009, dated 2018).

Amino acid sequences for entries named in this document (tags omitted). Residues count along the entry.
UniProt Q14416, 19-872 limits assumed: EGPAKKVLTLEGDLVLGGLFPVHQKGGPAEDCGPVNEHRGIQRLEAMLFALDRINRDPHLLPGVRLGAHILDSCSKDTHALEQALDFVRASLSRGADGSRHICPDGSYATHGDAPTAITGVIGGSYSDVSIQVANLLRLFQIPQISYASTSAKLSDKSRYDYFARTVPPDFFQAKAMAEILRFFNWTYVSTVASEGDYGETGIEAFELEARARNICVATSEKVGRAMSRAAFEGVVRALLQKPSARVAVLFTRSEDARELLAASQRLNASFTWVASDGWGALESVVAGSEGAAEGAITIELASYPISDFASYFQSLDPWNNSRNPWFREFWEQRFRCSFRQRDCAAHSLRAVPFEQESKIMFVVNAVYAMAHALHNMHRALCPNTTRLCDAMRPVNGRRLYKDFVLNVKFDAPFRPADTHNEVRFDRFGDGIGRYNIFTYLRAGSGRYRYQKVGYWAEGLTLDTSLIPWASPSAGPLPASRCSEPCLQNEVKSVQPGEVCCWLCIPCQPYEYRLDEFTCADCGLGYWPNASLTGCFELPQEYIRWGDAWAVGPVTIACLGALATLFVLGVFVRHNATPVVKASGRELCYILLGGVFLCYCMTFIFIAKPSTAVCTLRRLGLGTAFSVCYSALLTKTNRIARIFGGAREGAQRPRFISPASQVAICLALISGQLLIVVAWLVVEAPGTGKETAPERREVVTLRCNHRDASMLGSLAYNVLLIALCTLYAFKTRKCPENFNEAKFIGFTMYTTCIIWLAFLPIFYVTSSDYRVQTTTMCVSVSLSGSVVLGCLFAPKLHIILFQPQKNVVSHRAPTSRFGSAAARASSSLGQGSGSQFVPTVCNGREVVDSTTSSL

The first assay addresses human mGluR2 receptor (Homo sapiens, UniProt Q14416). In words: [35S]GTPγS binding assay, positive allosteric modulation (GTPγS-PAM) in presence of EC20 glutamate. The note with it: in presence of glutamate at EC20; average pEC50 if more experiments; ‡ means tested once. It counts as biochemical. Background: GTPγS resists hydrolysis and so accumulates on activated G proteins.
For `Clc1c(CN2CCc3oc4ccccc4c3C2)ccn2c(CC3CC3)nnc12`, the GTPγS - hR2 PAM pEC50 was 6.11 ‡.

As to `CC(C)(C)Cc1nnc2c(C(F)(F)F)c(CN3CCC(c4ccc(F)cc4F)CC3)ccn12`, the GTPγS - hR2 PAM pEC50 was 6.98 ‡.

Turning to `FC(F)(F)c1c(CN2CCC(Oc3ccccn3)CC2)ccn2c(CC3CC3)nnc12`, the “GTPγS - hR2 PAM pEC50” value was determined as 6.63. The same measure, in the same setting: to `FC(F)(F)c1c(CN2CCc3oc4ccccc4c3C2)ccn2c(CC3CC3)nnc12` belongs 6.87; to `CC1(C)OC2(CCN(Cc3ccn4c(CC5CC5)nnc4c3C(F)(F)F)CC2)c2ccccc21`, 7.37; to `CC1CN(c2ccn3c(CC4CC4)nnc3c2C(F)(F)F)CCC1c1ccccc1` (single isomer, unassigned), 7.52 ‡. Regarding `Cc1c(CN2CCC(c3ccc(F)cc3F)CC2)ccn2c(CC3CC3)nnc12`, the “GTPγS - hR2 PAM pEC50” value is 6.21. Still for that read-out and setting: the result for `CCCc1nnc2c(C(F)(F)F)c(CN3CCC(c4ccccc4)CC3)ccn12` reads 7.29; that for `CCOc1c(F)cccc1N1CCN(Cc2ccn3c(CC4CC4)nnc3c2Cl)CC1`, 7.33; that for `Fc1ccc(C2CCN(Cc3ccn4c(CCC5CC5)nnc4c3C(F)(F)F)CC2)c(F)c1`, 6.77 ‡. Still for that read-out and setting: to `COc1ccccc1C1CCN(c2ccn3c(OCC4CC4)nnc3c2Cl)CC1` belongs 6.31 ‡; to `CCCc1nnc2c(C(F)(F)F)c(CN3C[C@@H]4[C@H](C3)[C@H]4c3ccccc3)ccn12` (relative stereo), 7.23 ‡. The same measure, in the same setting: to `CC1(c2ccc(F)cc2)CCN(Cc2ccn3c(CC4CC4)nnc3c2C(F)(F)F)CC1` belongs 7.55; to `CC1(c2cccc(F)c2)CCN(Cc2ccn3c(CC4CC4)nnc3c2C(F)(F)F)CC1`, 7.48 ‡; to `COc1ccccc1N1CCN(Cc2ccn3c(CC4CC4)nnc3c2C(F)(F)F)CC1`, 6.79.

For the compound `Clc1c(CN2C[C@@H]3[C@H](C2)[C@H]3c2ccccc2)ccn2c(CC3CC3)nnc12` (relative stereo), the “GTPγS - hR2 PAM pEC50” value was found to be 7.13. On the same count and under the same terms, to `CCCc1nnc2c(C(F)(F)F)c(CN3CCN(c4ccc(F)cc4F)CC3)ccn12` belongs 6.61 ‡; to `FC(F)(F)c1c(CN2CCC(n3ccc4ccccc43)CC2)ccn2c(CC3CC3)nnc12`, 7.27 ‡; to `CC(C)Cc1nnc2c(C(F)(F)F)c(CN3CCC(F)(c4ccccc4)CC3)ccn12`, 6.64 ‡. Take `C[C@H](c1ccc(F)cc1)N1CCN(c2ccn3c(CC4CC4)nnc3c2Cl)CC1`: the GTPγS - hR2 PAM pEC50 is 6.33 ‡. Same read-out and setting: the result for `Fc1ccc(C2CCN(Cc3ccn4c(CC5CCC5)nnc4c3C(F)(F)F)CC2)c(F)c1` reads 7.23 ‡. On the same count and under the same terms, the result for `FC(F)(F)c1c(CN2CCN(c3ccc(Cl)cn3)CC2)ccn2c(CC3CC3)nnc12` reads 7.25 ‡; that for `Fc1ccc(OCC2CCN(Cc3ccn4c(CC5CC5)nnc4c3C(F)(F)F)CC2)c(F)c1`, 7.24 ‡. Consider `CCCc1nnc2c(C(F)(F)F)c(CN3CCC(c4ccc(F)cc4F)CC3)ccn12`, for which the “GTPγS - hR2 PAM pEC50” value stood at 7.27. Same read-out and setting: the result for `CCc1nnc2c(C(F)(F)F)c(CN3CCC(c4ccccc4)CC3)ccn12` reads 6.84; that for `CCOCc1nnc2c(C(F)(F)F)c(CN3C[C@@H]4[C@H](C3)[C@H]4c3ccccc3)ccn12` (relative stereo), 7.11 ‡; that for `Fc1ccc(COC2CCN(Cc3ccn4c(CC5CC5)nnc4c3Cl)CC2)c(F)c1`, 6.5. Same read-out and setting: to `CC1(c2ccc(F)cc2)CCN(Cc2ccn3c(CC(F)(F)F)nnc3c2Cl)CC1` belongs 6.83.

For `Fc1cccc(N2CCN(Cc3ccn4c(CC5CC5)nnc4c3C(F)(F)F)CC2)c1F`, the GTPγS - hR2 PAM pEC50 is 7.71 ‡. Same read-out and setting: to `CCc1nnc2c(C(F)(F)F)c(CN3CCC(F)(c4ccccc4)CC3)ccn12` belongs 6.08 ‡; to `COc1cc(F)ccc1C1CCN(Cc2ccn3c(CC4CC4)nnc3c2Cl)CC1`, 6.87; to `Cc1cc(C)nc(N2CCN(Cc3ccn4c(CC5CC5)nnc4c3C(F)(F)F)CC2)n1`, 6.41. With `Clc1c(N2CCN(C[C@H]3C[C@@H]3c3ccccc3)CC2)ccn2c(CC3CC3)nnc12` (relative stereo), the “GTPγS - hR2 PAM pEC50” value stood at 5.88.

As for `CCc1nnc2c(C(F)(F)F)c(CN3CCN(c4ccc(F)cc4F)CC3)ccn12`, the “GTPγS - hR2 PAM pEC50” value was 6.02. The same measure, in the same setting: the result for `C[C@@H]1CN(c2ccn3c(CC4CC4)nnc3c2Cl)CCN1c1cc(F)cc(F)c1` reads 6.81. For the compound `Fc1cnc(N2CCN(Cc3ccn4c(CC5CC5)nnc4c3Cl)CC2)c(F)c1`, the GTPγS - hR2 PAM pEC50 was 5.96 ‡.

With `COc1ccccc1N1CCN(Cc2ccn3c(CC4CC4)nnc3c2Cl)CC1`, the GTPγS - hR2 PAM pEC50 was 5.71 ‡.

With `Fc1ccc(F)c(N2CCN(Cc3ccn4c(CC5CC5)nnc4c3C(F)(F)F)CC2)c1`, the GTPγS - hR2 PAM pEC50 was 7.35 ‡.

As for `CC1(c2cccc(F)c2)CCN(Cc2ccn3c(CC4CC4)nnc3c2Cl)CC1`, the “GTPγS - hR2 PAM pEC50” value is listed as 6.74. The same measure, in the same setting: to `CC(C)Cc1nnc2c(C(F)(F)F)c(CN3C[C@@H]4[C@H](C3)[C@H]4c3ccccc3)ccn12` (relative stereo) belongs 7.39 ‡; to `CC1(c2ccccc2F)CCN(Cc2ccn3c(CC4CC4)nnc3c2C(F)(F)F)CC1`, 7.55. In the case of `FC(F)(F)C1(c2ccccc2)CCN(Cc2ccn3c(CC4CC4)nnc3c2Cl)CC1`, the GTPγS - hR2 PAM pEC50 is 6.8 ‡. As for `Fc1ccc(N2CC3(CCCN(Cc4ccn5c(CC6CC6)nnc5c4C(F)(F)F)C3)C2)cc1`, the “GTPγS - hR2 PAM pEC50” value turned out to be 7.91.

`COc1ccccc1C1CCN(Cc2ccn3c(CC4CC4)nnc3c2C(F)(F)F)CC1`: the “GTPγS - hR2 PAM pEC50” value was found to be 7.41. Same read-out and setting: the result for `Fc1ccc(N2CCCC3(CN(Cc4ccn5c(CC6CC6)nnc5c4C(F)(F)F)C3)C2)cc1` reads 6.72. On the same count and under the same terms, to `COc1ccccc1C1CCN(Cc2ccn3c(CC4CC4)nnc3c2Cl)CC1` belongs 6.59; to `Clc1c(CN2CCC(Oc3ccccn3)CC2)ccn2c(CC3CC3)nnc12`, 5.84 ‡. Same read-out and setting: the result for `CCOc1c(F)cccc1N1CCN(Cc2ccn3c(CC4CC4)nnc3c2C(F)(F)F)CC1` reads 7.56; that for `C[C@H]1CN(c2ccn3c(CC4CC4)nnc3c2C(F)(F)F)CCN1c1cc(F)cc(F)c1`, 7.23; that for `CC1(C)OC2(CCN(c3ccn4c(CC5CC5)nnc4c3C3CC3)CC2)c2ccccc21`, 6.73. As for `FC(F)(F)C1CCN(Cc2ccn3c(CC4CC4)nnc3c2Cl)CC1`, the GTPγS - hR2 PAM pEC50 is 5.75 ‡. Still for that read-out and setting: to `Cc1cc(C)nc(N2CCN(Cc3ccn4c(CC5CC5)nnc4c3Cl)CC2)n1` belongs 5.58 ‡; to `COCCOCc1nnc2c(Cl)c(N3CCC(c4ccccc4)CC3)ccn12`, 6.07. Still for that read-out and setting: to `Fc1ccc(N2CC3(CCCN(Cc4ccn5c(CC6CC6)nnc5c4Cl)C3)C2)cc1` belongs 6.97; to `Fc1ccc(N2CCN(Cc3ccn4c(CC5CC5)nnc4c3C(F)(F)F)CC2)cc1F`, 7.24 ‡; to `CC1(C)CN(Cc2ccn3c(CC4CC4)nnc3c2C(F)(F)F)CCN1c1cc(F)cc(F)c1`, 8.25 ‡.

Turning to `CCCc1nnc2c(C(F)(F)F)c(CN3CCC(F)(c4ccccc4)CC3)ccn12`, the GTPγS - hR2 PAM pEC50 is 6.5 ‡. Same read-out and setting: the result for `COc1cc(F)ccc1N1CCN(Cc2ccn3c(CC4CC4)nnc3c2Cl)CC1` reads 6.01; that for `Fc1ccc(N2CCCC3(CN(Cc4ccn5c(CC6CC6)nnc5c4Cl)C3)C2)cc1`, 5.97 ‡. As for `CCOc1c(F)cccc1C1CCN(Cc2ccn3c(CC4CC4)nnc3c2Cl)CC1`, the “GTPγS - hR2 PAM pEC50” value is reported as 7.26. Turning to `FC(F)(F)c1c(CN2CCC(c3ccccn3)CC2)ccn2c(CC3CC3)nnc12`, the GTPγS - hR2 PAM pEC50 was 6.78 ‡. Same read-out and setting: the result for `CCc1nnc2c(C(F)(F)F)c(CN3CCC(c4ccc(F)cc4F)CC3)ccn12` reads 6.96. Same read-out and setting: the result for `Fc1ccc(OC2CCN(Cc3ccn4c(CC5CC5)nnc4c3Cl)CC2)c(F)c1` reads 6.44 ‡. Still for that read-out and setting: to `Clc1c(CN2CCC3(C=Cc4ccccc43)CC2)ccn2c(CC3CC3)nnc12` belongs 7.24 ‡; to `Clc1c(CN2CCN(c3ccccn3)CC2)ccn2c(CC3CC3)nnc12`, 6.31 ‡; to `CC1(c2cccc(F)c2)CCN(Cc2ccn3c(CC(F)(F)F)nnc3c2Cl)CC1`, 6.82.

`COC1(c2ccccc2)CCN(Cc2ccn3c(CC4CC4)nnc3c2Cl)CC1`: the “GTPγS - hR2 PAM pEC50” value is given as 6.77. The same measure, in the same setting: the result for `CC1(c2ccccc2F)CCN(Cc2ccn3c(CC4CC4)nnc3c2Cl)CC1` reads 6.84 ‡; that for `C[C@H]1CN(c2ccn3c(CC4CC4)nnc3c2C(F)(F)F)CCN1c1ccccc1`, 7.34. The same measure, in the same setting: to `C[C@@H]1CN(c2ccn3c(CC4CC4)nnc3c2C(F)(F)F)CCN1c1ccccc1` belongs 6.73; to `CCOc1c(F)cccc1C1CCN(Cc2ccn3c(CC4CC4)nnc3c2C(F)(F)F)CC1`, 7.71.

Still in this assay, the particulars now being: in presence of glutamate at EC20; average pEC50 if more experiments; ‡ means tested once; tested form: hydrochloride.
For `CCOCc1nnc2c(C(F)(F)F)c(CN3CCN(c4ccc(F)cc4F)CC3)ccn12`, the GTPγS - hR2 PAM pEC50 is 6.57 ‡.

The next assay has as its system PCP-induced hyperlocomotion in male NMRI mice. In words: Phencyclidine (PCP)-induced hyperlocomotion in mice (video tracking).
Settings: not given
Take `CC1(c2ccc(F)cc2)CCN(Cc2ccn3c(CC4CC4)nnc3c2C(F)(F)F)CC1`: the “inhibition of PCP-induced hyperlocomotion in mice (in words)” value was “inhibited”. On the same count and under the same terms, to `CCCc1nnc2c(C(F)(F)F)c(CN3CCN(c4ccc(F)cc4F)CC3)ccn12` belongs “inhibited”; to `CCc1nnc2c(C(F)(F)F)c(CN3CCC(c4ccccc4)CC3)ccn12`, “inhibited”. Same read-out and setting: the result for `CCc1nnc2c(C(F)(F)F)c(CN3CCN(c4ccc(F)cc4F)CC3)ccn12` reads “inhibited”; that for `Fc1cccc(F)c1C1CCN(Cc2ccn3c(CC4CC4)nnc3c2C(F)(F)F)CC1`, “inhibited”.

The assay is the same for the next values; noted with them: inhibition of PCP-induced hyperlocomotion, estimated ED50 values (n = 3 per dose; 4-fold separation between doses).
With `CCCc1nnc2c(C(F)(F)F)c(CN3CCC(c4ccccc4)CC3)ccn12`, the “Mice ED50 (mg/kg) PCP-Inh., estimated ED50 (footnote a)” value (“Mice ED50” for short) is given as 7.9 ^a) mg/kg. Turning to `CC1(c2ccc(F)cc2)CCN(Cc2ccn3c(CC4CC4)nnc3c2C(F)(F)F)CC1`, the “Mice ED50” value is given as 12.6 ^a) mg/kg. Same read-out and setting: to `CCCc1nnc2c(C(F)(F)F)c(CN3CCN(c4ccc(F)cc4F)CC3)ccn12` belongs 1.25 ^a) mg/kg; to `CCc1nnc2c(C(F)(F)F)c(CN3CCC(c4ccccc4)CC3)ccn12`, 20 ^a) mg/kg; to `CCc1nnc2c(C(F)(F)F)c(CN3CCN(c4ccc(F)cc4F)CC3)ccn12`, 3.2 ^a) mg/kg.

For the compound `Fc1cccc(F)c1C1CCN(Cc2ccn3c(CC4CC4)nnc3c2C(F)(F)F)CC1`, the “Mice ED50” value is recorded as 1.25 ^a) mg/kg.
